Assay results reported in US20210308182A1, “REGULATORY T CELL EPITOPES” (EpiVax Inc., priority 2020, published 2021).

Tested on: response to OVA immunization
Assay: OVA immunization of mice treated with HSA-Tregitope conjugates or free maleimide-Tregitope
Format: in vivo, mouse
Conditions: female C57BL/6 mice, OVA day 0 (CFA) and day 14 (IFA), sacrifice Day 17; splenocytes stimulated with OVA
Procedure: The effect on the response to OVA immunization of preformed conjugate HSA-Tregitope therapeutics and a free-maleimide-Tregitope peptide is evaluated. The latter free-maleimide peptide forms a conjugation in vivo after injection via the reactive maleimide group to the free-Cys34 of the subject's endogenous HSA. 5 mgs of the MPA-P2 and MPA-P12 is used as free-MPA-Tregitope, with the unconjugated HSA in the sample being accounted for by calculating the molar ratio of conjugated to unconjugated HSA.
Mice (female C57BL/6) are immunized s.c. with 50 mg ovalbumin (OVA) on day 0 (CFA) and day 14 (IFA). The preformed HSA conjugate treatments is administered with the OVA in CFA on day 0. Test groups include OVA/HSA-P2-high and OCA/HSA-P2-low. […]
For T-cell proliferation and characterization assays, splenocyte samples are evaluated for induction of FoxP3 expression in TCR Tg cells and for the suppression of OVA specific T cell proliferation (in response to OVA peptide in vitro) by CFSE dilution. […]
Antigen-specific T cell proliferation is evaluated by CFSE dilution. […] Cells are be fixed, permeabilized and stained for FoxP3 expression and analyzed by flow cytometry. […]
Anti-OVA antibodies in serum from the bleeds harvested on day 17 are evaluated in serum by ELISA, including a serial dilution plot and a standard ELISA to determine antibody concentrations. […]

HSA: recombinant human serum albumin (Albucult), carrier and HSA-only control
IFNγ production (IFNγ/IL2 and IFNγ/IL17 fluorospot): inhibited less
